Assay results as given in ChEMBL document CHEMBL1142524, “Virtual screening to successfully identify novel janus kinase 3 inhibitors: a sequential focused screening approach” (J Med Chem, 2008).

The chains behind the UniProt entries cited, without tags or fusion partners. Where a name states a change or a piece, a line headed by the entry shows the natural chain unless it says otherwise.
UniProt P23458: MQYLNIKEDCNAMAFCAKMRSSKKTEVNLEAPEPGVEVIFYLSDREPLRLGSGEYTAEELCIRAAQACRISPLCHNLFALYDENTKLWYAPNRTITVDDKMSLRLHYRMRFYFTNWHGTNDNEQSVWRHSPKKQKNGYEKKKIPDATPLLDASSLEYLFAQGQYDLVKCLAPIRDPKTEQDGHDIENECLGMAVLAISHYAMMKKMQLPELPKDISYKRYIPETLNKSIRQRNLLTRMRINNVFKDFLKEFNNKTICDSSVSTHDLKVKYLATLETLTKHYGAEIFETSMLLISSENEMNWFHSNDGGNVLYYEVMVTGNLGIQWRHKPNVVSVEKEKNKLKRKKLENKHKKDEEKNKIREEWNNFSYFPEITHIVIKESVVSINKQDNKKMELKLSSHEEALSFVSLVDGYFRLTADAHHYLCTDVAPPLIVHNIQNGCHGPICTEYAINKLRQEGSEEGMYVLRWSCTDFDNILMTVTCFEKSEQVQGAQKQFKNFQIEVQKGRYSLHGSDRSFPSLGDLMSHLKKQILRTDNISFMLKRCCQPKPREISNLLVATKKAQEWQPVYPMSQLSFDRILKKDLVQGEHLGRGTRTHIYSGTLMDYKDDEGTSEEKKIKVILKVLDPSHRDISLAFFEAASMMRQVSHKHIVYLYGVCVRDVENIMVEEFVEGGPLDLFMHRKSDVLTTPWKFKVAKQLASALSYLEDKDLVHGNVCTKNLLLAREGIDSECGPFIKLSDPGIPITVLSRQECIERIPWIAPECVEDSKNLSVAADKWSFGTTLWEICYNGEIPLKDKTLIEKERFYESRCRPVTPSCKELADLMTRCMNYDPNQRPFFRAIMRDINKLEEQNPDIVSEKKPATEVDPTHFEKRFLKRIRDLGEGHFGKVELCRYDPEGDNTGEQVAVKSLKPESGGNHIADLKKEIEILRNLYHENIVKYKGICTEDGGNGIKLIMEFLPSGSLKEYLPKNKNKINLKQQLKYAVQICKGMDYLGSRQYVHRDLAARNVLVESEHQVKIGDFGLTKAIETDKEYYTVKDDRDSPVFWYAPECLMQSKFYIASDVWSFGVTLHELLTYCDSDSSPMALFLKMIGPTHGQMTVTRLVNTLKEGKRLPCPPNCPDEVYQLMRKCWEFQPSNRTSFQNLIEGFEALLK

Target: Tyrosine-protein kinase JAK1 (Homo sapiens, UniProt P23458)

CC(C)(C)c1nc2c3ccc(F)cc3c3c(=O)[nH]ccc3c2[nH]1
IC50: 15 nM
